The record followed here is patent US10004701B2, “Methods and compositions for treating infection” (UNIVERSITY OF ROCHESTER, priority 2012, dated 2018).

The chains behind the UniProt entries cited, without tags or fusion partners. Where a name states a change or a piece, a line headed by the entry shows the natural chain unless it says otherwise.
UniProt P0A0K8: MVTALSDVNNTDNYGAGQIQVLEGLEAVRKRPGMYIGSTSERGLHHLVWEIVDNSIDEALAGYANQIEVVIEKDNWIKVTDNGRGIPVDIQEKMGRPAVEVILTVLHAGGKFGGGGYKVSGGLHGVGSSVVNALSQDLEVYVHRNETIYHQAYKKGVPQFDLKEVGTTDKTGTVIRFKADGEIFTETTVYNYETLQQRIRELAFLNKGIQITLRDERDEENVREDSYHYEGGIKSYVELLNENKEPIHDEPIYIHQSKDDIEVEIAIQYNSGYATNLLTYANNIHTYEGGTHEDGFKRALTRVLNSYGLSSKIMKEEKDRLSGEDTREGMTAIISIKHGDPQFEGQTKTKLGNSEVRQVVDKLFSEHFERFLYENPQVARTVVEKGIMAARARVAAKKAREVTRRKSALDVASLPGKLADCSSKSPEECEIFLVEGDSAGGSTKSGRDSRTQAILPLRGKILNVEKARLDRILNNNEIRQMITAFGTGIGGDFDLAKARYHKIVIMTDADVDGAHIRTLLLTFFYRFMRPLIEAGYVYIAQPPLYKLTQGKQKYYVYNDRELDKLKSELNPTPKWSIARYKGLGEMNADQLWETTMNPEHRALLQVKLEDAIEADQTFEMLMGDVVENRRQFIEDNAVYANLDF
UniProt P20831: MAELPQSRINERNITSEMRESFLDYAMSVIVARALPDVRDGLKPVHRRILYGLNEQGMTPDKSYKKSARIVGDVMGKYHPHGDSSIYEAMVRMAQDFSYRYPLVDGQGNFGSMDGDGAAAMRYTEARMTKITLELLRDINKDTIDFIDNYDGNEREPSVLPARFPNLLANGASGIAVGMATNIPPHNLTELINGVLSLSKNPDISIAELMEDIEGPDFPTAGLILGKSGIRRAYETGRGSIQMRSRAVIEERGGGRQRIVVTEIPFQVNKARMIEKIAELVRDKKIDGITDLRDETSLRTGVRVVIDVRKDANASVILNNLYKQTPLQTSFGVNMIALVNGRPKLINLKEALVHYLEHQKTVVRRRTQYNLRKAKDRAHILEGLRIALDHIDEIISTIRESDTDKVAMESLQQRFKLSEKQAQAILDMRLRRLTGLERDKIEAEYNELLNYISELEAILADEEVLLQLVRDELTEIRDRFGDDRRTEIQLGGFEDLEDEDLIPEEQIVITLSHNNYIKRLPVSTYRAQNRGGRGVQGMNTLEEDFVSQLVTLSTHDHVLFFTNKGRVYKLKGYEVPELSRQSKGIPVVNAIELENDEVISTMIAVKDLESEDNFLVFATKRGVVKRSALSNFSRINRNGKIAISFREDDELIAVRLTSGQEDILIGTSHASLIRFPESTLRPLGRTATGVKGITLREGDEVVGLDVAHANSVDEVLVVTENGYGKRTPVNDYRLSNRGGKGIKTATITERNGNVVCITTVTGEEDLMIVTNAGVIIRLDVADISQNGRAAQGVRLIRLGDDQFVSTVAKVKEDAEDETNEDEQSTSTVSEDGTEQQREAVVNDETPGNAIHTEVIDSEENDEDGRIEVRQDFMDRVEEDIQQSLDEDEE

Where a name gives a salt, the structure may show the parent alone. Read-outs that look alike come from different tables or passages of the source. Some results are limits rather than exact numbers.

The test system of one assay is E. faecium. Kind of assay: AK assay 384-well format, Prestwick library screening. As to conditions: for fold induction at 50 µM: Enterococcus faecium, 3 h, read-out: AK-based Prestwick Library Screening Results, E. faecium (fold increase in extracellular AK activity).
Assay [1] concerns S. aureus strain USA300-0114. Described as above. Particulars: for fold induction at 50 µM: Staphylococcus aureus, USA300, 3 h, read-out: AK-based Prestwick Library Screening Results, S. aureus (fold increase in extracellular AK activity).
In the next assay the test system is K. pneumoniae. The description is as above. As to conditions: for fold induction at 50 µM: Klebsiella pneumoniae, 3 h, read-out: AK-based Prestwick Library Screening Results, K. pneumoniae (fold increase in extracellular AK activity).
Assay [2] concerns A. baumannii strain 98-37-09. Described as above. Particulars: for fold induction at 50 µM: Acinetobacter baumannii, 983709, 3 h, read-out: AK-based Prestwick Library Screening Results, A. baumannii (fold increase in extracellular AK activity).
The next assay concerns P. aeruginosa. The description is as above. Particulars: for fold induction at 50 µM: Pseudomonas aeruginosa, 3 h, read-out: AK-based Prestwick Library Screening Results, P. aeruginosa (fold increase in extracellular AK activity).
In the next assay the test system is E. cloacae. The assay is described as above. As to conditions: for fold induction at 50 µM: Enterobacter cloacae, 3 h, read-out: AK-based Prestwick Library Screening Results, E. cloacae (fold increase in extracellular AK activity).
Another assay deals with E. coli. The description is as above. Particulars: for fold induction at 50 µM: Escherichia coli, 3 h.
The next assay has as its target S. aureus DNA gyrase (Staphylococcus aureus, UniProt P0A0K8+P20831). Put plainly: S. aureus DNA gyrase supercoiling assay (TopoGEN). Particulars: 37° C. 30 min.
Setting [3] is: read-out: AK-based Prestwick Library Screening Results, E. coli (fold increase in extracellular AK activity).

Consider `O=C(O)C1CCCNC1` (racemic) [(±)-Nipecotic acid], for which the fold induction at 50 µM with E. faecium came out at 1; in assay [1], 1.3; in the assay with K. pneumoniae, 1.2; in assay [2], 1.3; in the assay with P. aeruginosa, 1; in the assay on E. cloacae, 1.3. For the same compound, the fold induction at 50 µM in the assay on E. coli (setting [3]) is 1.4.

Consider `O=C(O)CCCC[C@@H]1SC[C@@H]2NC(=O)N[C@@H]21` [Biotin], for which the fold induction at 50 µM in the assay with E. coli (read-out: AK-based Prestwick Library Screening Results, E. coli (increase in extracellular AK activity)) worked out at 0.6.

As to `CC(C)(C)c1ccc(C(=O)CCCN2CCC(C(O)(c3ccccc3)c3ccccc3)CC2)cc1` [Compound 11, 1-(4-(tert-butyl)phenyl)-4-(4-(hydroxydiphenylmethyl)piperidin-1-yl)butan-1-one], the IC50 (as a rule, the concentration needed to halve the response being measured) against S. aureus DNA gyrase is 199 µM.

Regarding `CC(C)(C)c1ccc(C(=O)CN2CCC(C(O)(c3ccccc3)c3ccccc3)CC2)cc1` [Compound 20, 1-(4-(tert-butyl)phenyl)-2-(4-(hydroxydiphenylmethyl)piperidin-1-yl)ethanone], it took 166 µM to reach half-maximal inhibition against S. aureus DNA gyrase (IC50).

With `CC(C)(C)c1ccc(C(N)CCCN2CCC(C(O)(c3ccccc3)c3ccccc3)CC2)cc1` (stereo not shown) [Compound 24, (1-(4-amino-4-(4-(tert-butyl)phenyl)butyl)piperidin-4-yl)diphenylmethanol], on S. aureus DNA gyrase, the IC50 is over 1060 µM.

`C[C@@H]1C[C@H]2[C@@H]3C[C@H](F)C4=CC(=O)C=C[C@]4(C)[C@@]3(F)[C@@H](O)C[C@]2(C)[C@@]1(O)C(=O)CO` [Flumethasone]: the fold induction at 50 µM was 0.9 in the assay with E. faecium; 0.6 in assay [1]; 0.6 in the assay on K. pneumoniae; 0.7 in assay [2]; 0.7 in the assay with P. aeruginosa; 0.8 in the assay on E. cloacae. Moreover, in the assay with E. coli (setting [3]), the fold induction at 50 µM was 0.6.

As to `CNCCC(Oc1ccccc1OC)c1ccccc1` (stereo not shown) [Nisoxetine hydrochloride], the fold induction at 50 µM in the assay with E. faecium came out at 1; in assay [1], 0.7; in the assay on K. pneumoniae, 0.7; in assay [2] it was 0.8; in the assay with P. aeruginosa, 0.9; in the assay with E. cloacae, 0.9. In addition, in the assay on E. coli (setting [3]), the fold induction at 50 µM was found to be 0.9.

In the case of `COc1cc(NC(C)CCCN)c2ncccc2c1` (stereo not shown) [Primaquine diphosphate], in the assay with E. coli (setting [3]), the fold induction at 50 µM was determined as 1.2.

For `O=C(NCCNCC(O)COc1ccc(O)cc1)N1CCOCC1` (stereo not shown) [Xamoterol hemifumarate], the fold induction at 50 µM in the assay with E. coli (setting [3]) came out at 1.3.

As for (−)-Quinpirole hydrochloride, the “AK-based Prestwick library screening result, E. faecium (fold increase in extracellular AK activity)” value with E. faecium is on record as 1.0. Besides, the “AK-based Prestwick library screening result, S. aureus (fold increase in extracellular AK activity)” value in assay [1] was 1.2. Besides, the “AK-based Prestwick library screening result, K. pneumoniae (fold increase in extracellular AK activity)” value in the assay with K. pneumoniae is 1.0. In addition, in assay [2], the “AK-based Prestwick library screening result, A. baumannii (fold increase in extracellular AK activity)” value was found to be 1.0. For the same compound, the “AK-based Prestwick library screening result, P. aeruginosa (fold increase in extracellular AK activity)” value in the assay on P. aeruginosa turned out to be 0.9. In addition, the “AK-based Prestwick library screening result, E. cloacae (fold increase in extracellular AK activity)” value in the assay on E. cloacae was 1.7. Also, in the assay with E. coli, the “AK-based Prestwick library screening result, E. coli (fold increase in extracellular AK activity)” value stood at 1.1.
